From patent US11684676B2, “Site-specific antibody-drug conjugates by ADP-ribosyl cyclases” (University of Southern California, priority 2020, dated 2023)

Key:
[1] = system: luciferase-expressing U937 cells; experiment: In vivo efficacy study in AML mouse xenograft; design: species or system mice
Protocol: Female NOD. Cg-Prkdc^scid Il2rg^tm1Wj1/SzJ (NSG) mice at age of 6 weeks were purchased from the Jackson Laboratory (ME, USA). Each mouse was inoculated with 1 million luciferase expressing U937 cells in 200 μL DPBS by tail vein I.V. injection. On day 2 post U937 cells implantation, mice were randomized into 5 per group and given 150 mg kg^−1 of D-luciferin (Syd Labs, MA, USA), followed by imaging using an IVIS Lumina III Imaging System (PerkinElmer, MA, USA) for luminescence generated by luciferase-expressing U937 cells. […] In order to conduct both the interim efficacy analysis (when conditions of control group mice reach the endpoint per IACUC protocol) based on tissue sample analysis by flow cytometry as well as study for survival difference between groups, 2 groups of mice were given treatment option (3), (4), (5) or (6) with one group for interim efficacy analysis while the other group for survival analysis. Since the completion of first IVIS imaging, all live mice were continued to be imaged by IVIS weekly.
When mice in the control group (treatment option (1)) reached the humane endpoint, they were euthanized together with other groups of mice given the treatment option (2)-(6). Blood, spleen, and bone marrow samples were collected from each group, and samples were prepared into single cell suspension with red blood cells lysed by red blood cell lysis buffer (Biolegend, CA, USA) in DPBS containing 2% FBS. […] All samples were acquired by a BD LSRFortessa X-20 Cell Analyzer (CA, USA) and analyzed by FACSDiva and FlowJo software. Data for blood samples were first gated based on morphology (FSC-A/SSC-A) for peripheral blood myeloid cell population and then all live cells (propidium iodide-staining negative) populations were analyzed on fluorescence intensities of different antibodies used for staining. Data for spleen and bone marrow samples were first gated based on morphology (FSC-A/SSC-A) to remove non-cell debris, and then all live cells (propidium iodide-staining negative) populations were analyzed on fluorescence intensities of different antibodies used for staining.

[2] = ADP-ribosyl cyclase activities of anti-hCLL-1-CD38 fusions; assay type: biochemical; conditions: versus recombinant human CD38 extracellular domain; NGD+ 100 μM
Protocol: ADP-Ribosyl Cyclase Activities.
The rate of cyclic guanine dinucleotide phosphate-ribose (cGDPR) generation was monitored by a Synergy H1 plate reader (BioTek, VT, USA) for its signature fluorescence (excitation at 300 nm; emission at 410 nm) for 5 minutes.

B1: DAR4-ARC-IgG: anti-hCLL-1 antibody 1075.7 with CD38 fused to C-termini of heavy and light chains (antibody)
heavy: DIQLQESGPGLVKPSQSLSLTCSVTGYSITSAYYWNWIRQFPGNKLEWMGYISYDGRNNYNPSLKNRISITRDTSKNQFFLKLNSVTTEDTATYYCAKEGDYDVGNYYAMDYWGQGTSVTVSSARTKGPSVFPLAPSSKSTSGGTAALGCLVKDYFPEPVTVSWNSGALTSGVHTFPAVLQSSGLYSLSSVVTVPSSSLGTQTYICNVNHKPSNTKVDKKV[about 500 residues with a human IgG1 Fc skipped]
light: ENVLTQSPAIMSASPGEKVTMTCRASSNVISSYVHWYQQRSGASPKLWIYSTSNLASGVPARFSGSGSGTSYSLTISSVEAEDAATYYCQQYSGYPLTFGAGTKLELKRAAAAPSVFIFPPSDEQLKSGTASVVCLLNNFYPREAKVQWKVDNALQSGNSQESVTEQDSKDSTYSLSSTLTLSKADYEKHKVYACEVTHQGLSSPVTKSFNRGECGGGGS[about 250 residues skipped]
For B1, which median survival ([1]; 5 mg/kg) is on record?
Its median survival is 13 days.

What about the “proliferation of engrafted U937 cells (IVIS luminescence)” value ([1]; 5 mg/kg every 72 hours, 3 times i.v.) of the same molecule?
Its value is “rapid proliferation of U937 cells”.

What about the “levels of engrafted U937 cells in bone marrow, spleen, and blood” value ([1]; 5 mg/kg, day 13, flow cytometry) of the same molecule?
Its value is “higher levels of engrafted U937 cells”.

What about the catalytic activity [2] of the same molecule?
Its catalytic activity is “significantly higher catalytic activities”.
